{"source": "patent US20260224524A1", "about": "“A PHARMACEUTICAL COMPOSITION TARGETING MUTANT P53 AND HER2” (DR DOZO LABORATORIES, priority 2023, published 2026)", "system": "human tumour xenograft MDA-MB-231", "assay": "Human tumour xenograft MDA-MB-231 model, tumour volume and relative tumour volume", "assay_type": "in vivo, mice", "conditions": "Group B, 2.5 mg/kg i.v. day 1, 5, 9", "experimental": "The therapeutic effect of SACC is evaluated against triple-negative breast cancer cell line MDA-MB-231 by analysing tumour volume and relative tumour volume. The study involved the use of six mice. These mice were administrated treatment according to the following Groups: […]", "data": [{"compound": "COc1cccc2c1C(=O)c1c(O)c3c(c(O)c1C2=O)C[C@@](O)(C(=O)CO)C[C@@H]3O[C@H]1C[C@H](N)[C@H](O)[C@H](C)O1", "note": "[ADR, Adriamycin]", "values": [{"measurement": "RTV (Relative Tumour Volume)", "setting": "day 1", "value": 1.00}, {"measurement": "RTV (Relative Tumour Volume)", "setting": "day 12", "value": 1.14}]}]}
